The chains are these.
B1: STING1-Flag (Flag-tagged full-length STING) [not stated] / HA-tagged 1-245 NCOA4 fragment [human] (parent complex)
chain 1: MPHSSLHPSIPCPRGHGAQKAALVLLSACLVTLWGLGEPPEHTLRYLVLHLASLQLGLLLNGVCSLAEELRHIHSRYRGSYWRTVRACLGCPLRRGALLLLSIYFYYSLPNAVGPPFTWMLALLGLSQALNILLGLKGLAPAEISAVCEKGNFNVAHGLAWSYYIGYLRLILPELQARIRTYNQHYNNLLRGAVSQRLYILLPLDCGVPDNLSMADPNIRFLDKLPQQTGDHAGIKDRVYSNSIYELLENGQRAGTCVLEYATPLQTLFAMSQYSQAGFSREDRLEQAKLFCRTLEDILADAPESQNNCRLIAYQEPADDSSFSLSQEVLRHLRQEEKEEVTVGSLKTSAVPSTSTMSQEPELLISGMEKPLPLRTDFS
chain 2: MNTFQDQSGSSSNREPLLRCSDARRDLELAIGGVLRAEQQIKDNLREVKAQIHSCISRHLECLRSREVWLYEQVDLIYQLKEETLQQQAQQLYSLLGQFNCLTHQLECTQNKDLANQVSVCLERLGSLTLKPEDSTVLLFEADTITLRQTITTFGSLKTIQIPEHLMAHASSANIGPFLEKRGCISMPEQKSASGIVAVPFSEWLLGSKPASGYQAPYIPSTDPQDWLTQKQTLENSQTSSRACN

The test covers variants of B1. As to the kind of experiment: co-immunoprecipitation (Flag IP, immunoblot densitometry); HEK293T cell lysates.
As to chain 1 S322A, the ratio to parent turned out to be 1.4.
The value for chain 1 E316A was 1.25; that for chain 1 E316A, chain 1 S322A was 0.68; that for chain 1 Q273A, chain 1 E316A was 1.18.
Turning to chain 1 Q273A, chain 1 E316A, chain 1 S322A, the ratio to parent was 0.36.
chain 1 Q273A: the ratio to parent worked out at 2.11.
The value for chain 1 Q273A, chain 1 S322A was 0.79.

The values are drawn from article PMC9334269 (2022).
